Results as given in patent US11655492B2, “Activated formylglycine-generating enzymes and methods of producing and using the same” (R.P. Scherer Technologies, LLC, priority 2015, dated 2023).
“Also recorded” adds a separate entry of the source.

The chains behind the UniProt entries cited, without tags or fusion partners. Where a name states a change or a piece, a line headed by the entry shows the natural chain unless it says otherwise.
UniProt Q9F3C7: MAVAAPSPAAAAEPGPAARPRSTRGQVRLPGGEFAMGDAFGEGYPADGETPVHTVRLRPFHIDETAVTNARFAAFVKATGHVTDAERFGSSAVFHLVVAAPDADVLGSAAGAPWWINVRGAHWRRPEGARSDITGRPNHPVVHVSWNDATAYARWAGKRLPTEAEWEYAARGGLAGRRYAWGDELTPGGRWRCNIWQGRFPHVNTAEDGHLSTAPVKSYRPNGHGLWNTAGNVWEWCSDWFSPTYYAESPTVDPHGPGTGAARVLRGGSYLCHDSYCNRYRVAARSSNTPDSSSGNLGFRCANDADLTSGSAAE

Assays:
Sc-FGE = Sc-FGE (Streptomyces coelicolor, UniProt Q9F3C7); format: biochemical, S. coelicolor
FGE = biological target: T1, FGE (Homo sapiens, UniProt Q8NBK3); assay: FGE reaction mixtures with reductants or additives (product formation); format: biochemical
T1 construct: made in house
T1 sequence (Q8NBK3 with tags, fused parts or gaps isoform Q8NBK3-4): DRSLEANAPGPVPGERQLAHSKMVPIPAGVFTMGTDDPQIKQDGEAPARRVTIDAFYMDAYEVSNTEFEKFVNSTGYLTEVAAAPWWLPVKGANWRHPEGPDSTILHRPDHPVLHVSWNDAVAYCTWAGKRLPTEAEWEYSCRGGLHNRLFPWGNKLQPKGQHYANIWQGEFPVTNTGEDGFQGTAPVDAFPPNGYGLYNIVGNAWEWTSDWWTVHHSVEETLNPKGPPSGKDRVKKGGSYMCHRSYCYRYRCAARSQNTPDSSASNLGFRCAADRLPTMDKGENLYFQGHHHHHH

[1] = biological target: S. coelicolor (“Sc”) FGEs (Streptomyces coelicolor, UniProt Q9F3C7)
recombinant human FGE = biological target: T2, recombinant human FGE (Homo sapiens, UniProt Q8NBK3); assay: In vivo conversion in CHO cells expressing recombinant human FGE and αHER2 mAb, additives in culture medium
T2 sequence (Q8NBK3 34-374): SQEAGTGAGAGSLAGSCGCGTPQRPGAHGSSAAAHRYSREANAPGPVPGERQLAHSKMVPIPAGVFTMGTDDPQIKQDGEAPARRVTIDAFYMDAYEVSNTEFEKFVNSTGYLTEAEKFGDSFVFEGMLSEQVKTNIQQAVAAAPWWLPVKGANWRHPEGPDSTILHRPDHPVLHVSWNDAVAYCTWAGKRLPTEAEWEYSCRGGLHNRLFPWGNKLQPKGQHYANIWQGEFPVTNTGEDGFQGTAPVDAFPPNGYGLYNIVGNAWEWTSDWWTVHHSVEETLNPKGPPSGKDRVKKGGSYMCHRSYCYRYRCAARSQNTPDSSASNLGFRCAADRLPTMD

O=S(=O)([O-])[O-].[Cu+2] [Cu^2+, copper(II) sulfate]
effect of pretreatment on specific activity (Sc-FGE): significantly increased | effect of treatment on specific activity (Sc-FGE): increased specific activity | effect on product formation when added directly to the reaction (FGE): significantly inhibited | conversion [1]: enhanced | effect on conversion (recombinant human FGE): increased conversion; also recorded: improved conversion; also recorded: same effect on conversion as 50 μM
